From ChEMBL document CHEMBL3745681, “Synthesis, Biological Evaluation, and Utility of Fluorescent Ligands Targeting the μ-Opioid Receptor” (2015)

Chains of the proteins cited; added tags and fusions are not shown.
UniProt P35372, whole entry: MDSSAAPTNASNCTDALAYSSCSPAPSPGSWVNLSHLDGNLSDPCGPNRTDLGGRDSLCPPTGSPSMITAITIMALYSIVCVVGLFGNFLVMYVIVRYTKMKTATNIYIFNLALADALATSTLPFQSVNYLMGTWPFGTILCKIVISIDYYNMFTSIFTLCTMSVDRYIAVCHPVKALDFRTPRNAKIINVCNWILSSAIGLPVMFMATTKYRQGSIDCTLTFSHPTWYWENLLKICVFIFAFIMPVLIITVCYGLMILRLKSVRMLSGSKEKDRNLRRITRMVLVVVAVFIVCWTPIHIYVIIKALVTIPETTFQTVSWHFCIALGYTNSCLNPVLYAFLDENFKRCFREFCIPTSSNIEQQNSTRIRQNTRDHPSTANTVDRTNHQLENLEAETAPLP
UniProt P41143, whole entry: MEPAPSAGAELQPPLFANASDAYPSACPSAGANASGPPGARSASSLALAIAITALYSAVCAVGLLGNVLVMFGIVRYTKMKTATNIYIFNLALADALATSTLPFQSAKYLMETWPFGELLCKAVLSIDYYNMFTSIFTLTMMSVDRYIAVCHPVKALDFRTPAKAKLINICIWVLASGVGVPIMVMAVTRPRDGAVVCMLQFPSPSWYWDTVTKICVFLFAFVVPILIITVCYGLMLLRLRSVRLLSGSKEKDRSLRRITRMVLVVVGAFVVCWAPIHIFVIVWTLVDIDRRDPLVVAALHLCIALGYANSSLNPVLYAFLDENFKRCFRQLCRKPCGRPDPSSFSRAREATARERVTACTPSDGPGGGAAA
UniProt P41145, whole entry: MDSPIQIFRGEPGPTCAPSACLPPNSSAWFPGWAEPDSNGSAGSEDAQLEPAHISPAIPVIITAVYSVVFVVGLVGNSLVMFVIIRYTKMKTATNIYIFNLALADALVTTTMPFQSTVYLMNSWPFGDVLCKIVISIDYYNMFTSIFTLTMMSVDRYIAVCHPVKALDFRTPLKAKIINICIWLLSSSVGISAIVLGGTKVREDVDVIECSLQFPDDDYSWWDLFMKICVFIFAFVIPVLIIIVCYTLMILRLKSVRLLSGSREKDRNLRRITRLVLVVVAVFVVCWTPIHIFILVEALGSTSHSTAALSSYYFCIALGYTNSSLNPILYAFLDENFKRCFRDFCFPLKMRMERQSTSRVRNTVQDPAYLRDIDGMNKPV

Columns and labels:
Mu-type opioid receptor [1] = target: T1, Mu-type opioid receptor (Homo sapiens, UniProt P35372); experiment: Antagonist activity at human MOR expressed in CHO-FlpIn cell membranes assessed as inhibition of DAMGO-induced ERK phosphorylation after 30 mins by Gaddum-Schild plot analysis
[2] = target: Delta-type opioid receptor (Homo sapiens, UniProt P41143); experiment: Antagonist activity at human DOR expressed in CHO-FlpIn cell membranes assessed as inhibition of SNC80-induced ERK phosphorylation after 30 mins by Gaddum-Schild plot analysis
[3] = target: Kappa-type opioid receptor (Homo sapiens, UniProt P41145); experiment: Antagonist activity at human KOR expressed in CHO-FlpIn cell membranes assessed as inhibition of ICI199441-induced ERK phosphorylation after 30 mins by Gaddum-Schild plot analysis
Mu-type opioid receptor [4] = target: T1, Mu-type opioid receptor; experiment: Displacement of [3H]diprenorphine from human MOR expressed in CHO-FlpIn cell membranes after 1 hr by liquid scintillation counting analysis

Row | Compound | pA2 (Mu-type opioid receptor [1]) | pA2 [2] | pA2 [3] | pKi (Mu-type opioid receptor [4])
1 | COc1nnc(OCCCC(=O)NCCCCCCNC(=O)[C@H]2C[C@@]34CC[C@]2(OC)[C@@H]2Oc5c(O)ccc6c5[C@@]23CCN(C)[C@@H]4C6)nn1 | 8.01 | < 5 | 6.37 | 
2 | CO[C@]12C=C[C@@]3([C@@H]4C(=O)N(CCCCCCN)C(=O)[C@@H]41)[C@H]1Cc4ccc(O)c5c4[C@@]3(CCN1C)[C@H]2O5.Cl.Cl |  |  |  | 5.69
3 | CO[C@]12CC[C@@]3(C[C@@H]1C(=O)NCCCCCCNC(=O)CCN1C(=O)c4cccc5c(N)ccc(c45)C1=O)[C@H]1Cc4ccc(O)c5c4[C@@]3(CCN1C)[C@H]2O5 | 7.87 | < 5 | 6.91 | 
4 | CCN1/C(=C/C=C/C=C/C2=[N+](CCCCCC(=O)NCCCCCCNC(=O)[C@H]3C[C@@]45CC[C@]3(OC)[C@@H]3Oc6c(O)ccc7c6[C@@]34CCN(C)[C@@H]5C7)c3ccc(S(=O)(=O)O)cc3C2(C)C)C(C)(C)c2cc(S(=O)(=O)O)ccc21 | 7.31 | < 5 | 6.3 | 
5 | CO[C@]12CC[C@@]3(C[C@@H]1C(=O)NCCCCCCN)[C@H]1Cc4ccc(O)c5c4[C@@]3(CCN1C)[C@H]2O5.Cl.Cl |  |  |  | 6.97
6 | CO[C@]12CC[C@@]3(C[C@@H]1C(=O)NCCCCCCNC(=O)OC(C)(C)C)[C@H]1Cc4ccc(O)c5c4[C@@]3(CCN1C)[C@H]2O5 |  |  |  | 8.66
7 | CO[C@]12CC[C@@]3(C[C@@H]1C(=O)NCCCCCCNC(=O)CCCCCNC(=O)COc1ccc(/C=C/C4=[N+]5C(=Cc6ccc(-c7cccs7)n6[B-]5(F)F)C=C4)cc1)[C@H]1Cc4ccc(O)c5c4[C@@]3(CCN1C)[C@H]2O5 | 8.37 | < 5 | 6.72 | 
8 | CO[C@]12C=C[C@@]3(C[C@@H]1C(=O)NCCCCCCNC(=O)OC(C)(C)C)[C@H]1Cc4ccc(O)c5c4[C@@]3(CCN1C)[C@H]2O5 |  |  |  | 8.13
9 | CO[C@]12C=C[C@@]3([C@@H]4C(=O)N(CCCCCCNC(=O)OC(C)(C)C)C(=O)[C@@H]41)[C@H]1Cc4ccc(O)c5c4[C@@]3(CCN1C)[C@H]2O5 |  |  |  | 6.58
